Read-outs that look alike come from different tables or passages of the source.
Key:
healthy subjects [1] = details: MAD any dose N=18
[2] = Day 28
mice = details: male mice, 180 mg/kg daily; ref Insilico Medicine, 2021; cited from earlier work
healthy subjects [3] = details: in vivo

CC(C)n1cnc(-c2ccc(F)cc2)c1-c1nc(C(=O)Nc2ccc(N3CCN(C)CC3)cc2)c[nH]1 [INS018_055, 2-[4-(4-fluorophenyl)-1-(prop-2-yl)imidazol-5-yl]-N-[4-(4-methylhexahydropyrazin-1-yl)phenyl]-1H-imidazole-4-carboxamide]
General disorders and administration site conditions (healthy subjects [1]): 38.9%
Mouth ulceration (healthy subjects [1]): 11.1%
Concentration, left lung tissue ([2]; 0.1 mg/mL): 16.18 ± 3.73 ng/g
Concentration, plasma ([2]; 0.1 mg/mL): 0.33 ± 0.12 ng/mL
Concentration, right lung tissue ([2]; 0.1 mg/mL): 17.37 ± 3.81 ng/g
Concentration, left lung tissue ([2]; 0.3 mg/mL): 77.55 ± 23.52 ng/g
Concentration, plasma ([2]; 0.3 mg/mL): 1.13 ± 0.37 ng/mL
Concentration, right lung tissue ([2]; 0.3 mg/mL): 78.35 ± 10.05 ng/g
Concentration, left lung tissue ([2]; 1.0 mg/mL): 301.47 ± 66.25 ng/g
Concentration, plasma ([2]; 1.0 mg/mL): 4.41 ± 0.80 ng/mL
Concentration, right lung tissue ([2]; 1.0 mg/mL): 340.47 ± 53.82 ng/g
Concentration, left lung tissue ([2]; 6.0 mg/mL): 1468.07 ± 278.61 ng/g
Concentration, plasma ([2]; 6.0 mg/mL): 30.40 ± 3.63 ng/mL
Concentration, right lung tissue ([2]; 6.0 mg/mL): 1490.45 ± 328.68 ng/g
reduction of haemoglobin concentration (mice): 16.8%
General disorders and administration site conditions (healthy subjects [3]): 3 (10.0) [3]
